Experimental data taken from patent publication US20200085828A1, “PHOSPHODIESTERASE INHIBITORS AND METHODS OF MICROBIAL TREATMENT” (Mavupharma, Inc., priority 2016, published 2020).

Amino acid sequences for entries named in this document (tags omitted).
UniProt P22413, whole entry: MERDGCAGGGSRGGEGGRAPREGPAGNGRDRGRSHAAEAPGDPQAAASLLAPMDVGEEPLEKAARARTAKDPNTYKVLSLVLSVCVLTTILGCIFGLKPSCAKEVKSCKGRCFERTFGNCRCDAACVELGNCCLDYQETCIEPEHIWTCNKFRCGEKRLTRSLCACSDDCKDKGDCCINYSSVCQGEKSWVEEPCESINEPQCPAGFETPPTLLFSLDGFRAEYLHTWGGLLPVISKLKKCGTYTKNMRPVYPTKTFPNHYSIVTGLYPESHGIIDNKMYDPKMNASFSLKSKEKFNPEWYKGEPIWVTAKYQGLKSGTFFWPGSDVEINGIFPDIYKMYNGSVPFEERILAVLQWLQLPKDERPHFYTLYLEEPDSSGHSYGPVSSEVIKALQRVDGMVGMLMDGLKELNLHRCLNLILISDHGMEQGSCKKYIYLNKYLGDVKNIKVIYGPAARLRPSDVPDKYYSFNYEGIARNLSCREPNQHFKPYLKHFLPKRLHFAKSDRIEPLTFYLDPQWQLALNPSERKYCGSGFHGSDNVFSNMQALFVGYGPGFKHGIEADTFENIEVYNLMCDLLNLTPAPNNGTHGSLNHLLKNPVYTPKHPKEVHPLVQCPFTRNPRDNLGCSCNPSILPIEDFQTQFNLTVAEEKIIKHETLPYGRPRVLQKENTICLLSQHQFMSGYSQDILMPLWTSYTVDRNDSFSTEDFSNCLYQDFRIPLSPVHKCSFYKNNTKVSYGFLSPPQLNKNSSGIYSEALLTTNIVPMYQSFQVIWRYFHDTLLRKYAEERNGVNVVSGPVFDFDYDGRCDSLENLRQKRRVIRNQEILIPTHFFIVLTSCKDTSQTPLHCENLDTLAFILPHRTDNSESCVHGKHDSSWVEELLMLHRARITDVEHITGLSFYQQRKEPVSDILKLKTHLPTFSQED

Assays:
human recombinant ENPP1 [1] = biological target: T1, human recombinant ENPP1 (Homo sapiens, UniProt P22413); experiment: ENPP1 inhibition with 2′,3′-cGAMP substrate (AMP-Glo assay); format: biochemical; details: read-out: ENPP1 inhibition Ki (nM) cGAMP Substrate; 20 μM 2′3′cGAMP; Ki from IC50 by Cheng-Prusoff, Km 15 μM
human recombinant ENPP1 [2] = biological target: T1, human recombinant ENPP1; experiment: ENPP1 inhibition with AMP-pNP (ATP analog) substrate, absorbance at 405 nm; format: biochemical; details: read-out: ENPP1 inhibition Ki (nM) AMP-pNP Substrate; 300 μM AMP-pNP; Ki from IC50 by Cheng-Prusoff, Km 151 μM

Compound	Ki (human recombinant ENPP1 [1])	Ki (human recombinant ENPP1 [2])
COc1cc2ncnc(NCc3ccc(NS(N)(=O)=O)cc3)c2cc1OC	9.1 nM	316 nM
CNc1nc(N2CCC(CCNS(N)(=O)=O)CC2)c2cc(OC)c(OC)cc2n1	77.5 nM	> 3000 nM
COc1cc2nc(N)nc(N3CCC(CCNS(N)(=O)=O)CC3)c2cc1OC	6.2 nM	296 nM
COc1cc2ncnc(N3CCN(C(=O)CNS(N)(=O)=O)CC3)c2cc1OC	7.3 nM	418 nM

Other lines, results leading:

Ki (human recombinant ENPP1 [1])	Ki (human recombinant ENPP1 [2])	Compound
2.9 nM	140 nM	COc1cc2ncnc(-c3ccc(CNS(N)(=O)=O)cc3)c2cc1OC
2.4 nM	208 nM	COc1cc2ncnc(N3CCC(CNS(N)(=O)=O)CC3)c2cc1OC
